Measured values reported in publication PMC12669672, “Structural insights into selective and dual antagonism of EP2 and EP4 prostaglandin receptors” (The EMBO Journal, 2025).

Chains of the proteins cited; added tags and fusions are not shown.
UniProt P43116, whole entry D311A: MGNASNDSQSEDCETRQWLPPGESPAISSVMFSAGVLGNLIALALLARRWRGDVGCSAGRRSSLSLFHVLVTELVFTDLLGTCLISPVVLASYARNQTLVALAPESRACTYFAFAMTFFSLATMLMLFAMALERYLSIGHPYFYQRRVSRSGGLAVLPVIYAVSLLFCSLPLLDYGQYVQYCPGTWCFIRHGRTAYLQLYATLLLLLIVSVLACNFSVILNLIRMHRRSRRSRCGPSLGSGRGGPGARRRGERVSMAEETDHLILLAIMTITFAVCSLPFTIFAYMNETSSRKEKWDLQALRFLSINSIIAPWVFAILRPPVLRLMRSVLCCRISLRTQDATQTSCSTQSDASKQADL
UniProt P43116, whole entry F273A: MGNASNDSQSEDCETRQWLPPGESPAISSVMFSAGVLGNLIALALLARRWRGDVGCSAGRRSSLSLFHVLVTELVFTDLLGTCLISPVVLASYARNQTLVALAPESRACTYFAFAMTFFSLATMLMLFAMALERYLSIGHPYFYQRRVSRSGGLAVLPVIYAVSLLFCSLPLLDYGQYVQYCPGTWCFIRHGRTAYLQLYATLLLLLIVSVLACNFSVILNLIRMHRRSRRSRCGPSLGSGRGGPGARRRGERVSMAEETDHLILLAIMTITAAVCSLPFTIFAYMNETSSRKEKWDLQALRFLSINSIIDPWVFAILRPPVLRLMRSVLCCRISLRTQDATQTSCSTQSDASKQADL

What was measured:
Assay in all cases: GloSensor cAMP assay, PGE2 induced cAMP signaling (activation)
Format in all cases: cell-based
Conditions in all cases: mean ± S.E.M., n = 3
EP2-D311A = target: T1, EP2-D311A (Homo sapiens, UniProt P43116, D311A)
T1 construct: The full-length EP2 or EP4 was cloned into the pcDNA3.1 vector (Invitrogen), incorporating an N-terminal FLAG tag; expressed in transfected cells; host or cells: AD293
Procedure: (§1) The full-length EP2 or EP4 was cloned into the pcDNA3.1 vector (Invitrogen), incorporating an N-terminal FLAG tag. AD293 cells were seeded in six-well plates containing DMEM supplemented with 10% dialyzed FBS 1 day prior to transfection. Following overnight growth, cells were transfected with a 1:1 ratio of receptor construct and GloSensor22F cAMP biosensor (Promega) plasmids.
(§2) Twenty-four hours post-transfection, the cells were transferred to CO2-independent media containing 2% GloSensor cAMP Reagent (Promega) and distributed into 384-well assay plates at a density of 4000 cells per well in 10 μL. […] The plates were then incubated at 37 °C for an additional hour before luminescence measurements were taken using an EnVision plate reader.
(§3) Data analysis was performed using GraphPad Prism software v8.0.1. A nonlinear regression analysis, employing a sigmoidal dose–response model, was conducted to determine the Emax values and half-maximum inhibitory concentrations (IC50) for each compound tested.

EP2-F273A = target: T2, EP2-F273A (Homo sapiens, UniProt P43116, F273A)
T2 construct: The full-length EP2 or EP4 was cloned into the pcDNA3.1 vector (Invitrogen), incorporating an N-terminal FLAG tag; expressed in transfected cells; host or cells: AD293
Procedure: as §1, §2, §3

EP2 WT = EP2 WT (Homo sapiens, UniProt P43116); design: The full-length EP2 or EP4 was cloned into the pcDNA3.1 vector (Invitrogen), incorporating an N-terminal FLAG tag; expressed in transfected cells; host or cells: AD293
Procedure: as §1, §2, §3

CCCCC[C@H](O)/C=C/[C@H]1[C@H](O)CC(=O)[C@@H]1C/C=C\CCCC(=O)O [PGE2, Prostaglandin E2] was tested, and the EC50 (EP2-D311A) was 14.8 nM, the EC50 (EP2-F273A) was 138 nM and the EC50 (EP2 WT) was 0.479 nM.
